pIC50: −log10 of the molar value.
Columns and labels:
NCI-H460 [1] = assay: Cytotoxicity against human H460 cells under hypoxic condition after 2 hrs by Alamar blue staining assay
NCI-H460 [2] = assay: Cytotoxicity against human H460 cells under normoxic condition after 2 hrs by Alamar blue staining assay
NCI-H460 [3] = assay: Ratio of IC50 for human H460 cells under normoxic condition to hypoxic condition by Alamar blue staining assay
Liver = assay: Metabolic stability in mouse liver microsomes at 5 uM after 30 mins; type: ADME, Microsome; conditions: 0.5 h

What does the source list for `NP(=O)(OCc1ccc([N+](=O)[O-])o1)N(CCBr)CCBr` (centres undefined)?
pIC50 (NCI-H460 [1]): 6.59; pIC50 (NCI-H460 [2]): 4.82; Ratio IC50 (NCI-H460 [3]): 58; Stability (Liver): 68%

From ChEMBL document CHEMBL1144808 (J Med Chem, 2008)
